Amino acid sequences for entries named in this document (tags omitted).
UniProt O09106, whole entry: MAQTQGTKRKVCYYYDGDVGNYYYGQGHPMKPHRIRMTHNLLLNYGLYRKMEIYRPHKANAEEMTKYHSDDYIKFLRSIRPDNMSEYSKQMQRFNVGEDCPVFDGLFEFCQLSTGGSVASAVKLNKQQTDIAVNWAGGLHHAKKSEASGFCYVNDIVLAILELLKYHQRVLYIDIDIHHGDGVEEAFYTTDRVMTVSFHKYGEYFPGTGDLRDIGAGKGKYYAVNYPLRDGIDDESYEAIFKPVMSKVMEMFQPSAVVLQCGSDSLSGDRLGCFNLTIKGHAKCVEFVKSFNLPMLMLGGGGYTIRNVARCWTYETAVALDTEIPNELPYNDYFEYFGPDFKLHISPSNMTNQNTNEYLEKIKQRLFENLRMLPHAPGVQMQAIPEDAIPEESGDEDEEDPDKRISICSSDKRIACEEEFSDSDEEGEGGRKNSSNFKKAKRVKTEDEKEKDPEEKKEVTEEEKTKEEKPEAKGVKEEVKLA

According to ChEMBL document CHEMBL1135928, “Binding mode analysis of 3-(4-benzoyl-1-methyl-1H-2-pyrrolyl)-N-hydroxy-2-propenamide: a new synthetic histone deacetylase inhibitor inducing histone hyperacetylation, growth inhibition, and terminal cell differentiation” (J Med Chem, 2002):

Target: Histone deacetylase 1 (Mus musculus, UniProt O09106)
Experiment: Binding affinity towards HDAC1 (Histone deacetylase 1) in mouse A20 cells, expressed as binding constant (pKi)
Assay type: cell-based

CC(/C=C/C(=O)NO)=C\[C@@H](C)C(=O)c1ccc(N(C)C)cc1 [TRICHOSTATIN]
Ki: 1.07 nM
